# Source: PMC7716890 (Clinical Pharmacokinetics, 2020)
# What was measured:
# [1] = cocktail with probenecid vs cocktail alone
smiles,measurement,setting,value
"CN(C)C(=N)N=C(N)N [Metformin, metformin]",effect of rifampin on Cmax and AUC0–tz (exposure),cocktail with single-dose rifampin vs cocktail alone,not impacted; also recorded: unchanged
same,effect of verapamil on systemic exposure,cocktail with single-dose verapamil vs cocktail alone,no effect
same,effect of probenecid on systemic exposure,[1],no relevant effect

# Entries after “also recorded” stand apart in the source; their conditions may differ.
